Experimental data taken from article PMC6718548, “Tau pathology reduction with SM07883, a novel, potent, and selective oral DYRK1A inhibitor: A potential therapeutic for Alzheimer's disease” (Aging Cell, 2019).

Molecular target: T1, DYRK1a (Homo sapiens, UniProt Q13627)
T1 construct: purchased Thermo Fisher Scientific
Assay: DYRK1A kinase assay (Z-Lyte / SelectScreen IC50)
Assay type: biochemical
Conditions: Suppl. Table 2 comparison with commercially available inhibitors

## CCN1/C(=C/C(C)=O)Sc2ccc(OC)cc21 [TG003]
  IC50: 70 nM
